Earlier results, collected in article PMC11274801, “A Novel PDE10A Inhibitor for Tourette Syndrome and Other Movement Disorders” (Cells, 2024).

Tests used:
D2 receptor = settings: 10 mg daily dose ref 53; cited from earlier work
[1] = design: method as in PMID 24021518; settings: over 10 weeks ref 55; cited from earlier work

O=C1CCc2ccc(OCCCCN3CCN(c4cccc(Cl)c4Cl)CC3)cc2N1 [aripiprazole]
D2 occupancy (D2 receptor): ~ 85% | body weight, body mass index, waist circumference [1]: increased mean body weight, body mass index, and waist circumference significantly vs. placebo
